Source: PMC4906375, “Contribution of Amphipathicity and Hydrophobicity to the Antimicrobial Activity and Cytotoxicity of β-Hairpin Peptides” (ACS Infectious Diseases, 2016)

Tests used:
[1] = Cytotoxicity, Alamar Blue (resazurin) assay; format: cell-based; conditions: human, HepG2 cells
Experimental: (§1) Cytotoxicity to HEK293 and HepG2 cells was determined using the Alamar Blue (resazurin) assay,[55],[56] with 24 h of incubation and either 1 or 10% serum concentration. Full assay details are included in the Supporting Information.
(§2) Cytotoxicity. Cytotoxicity to HEK293 and HepG2 cells was determined using the Alamar Blue (resazurin) assay,3, 4 For the assays supplemented with 1 % FBS as final concentration the cells were seeded one day prior to the assay (3,000 per 20 µL for HEK293 and 4,000 per 20 µL for HepG2) with DMEM + 2 % FBS. The compounds were prepared as described below, using DMEM with no FBS instead to give the final FBS concentration of 1 %.
The highest concentration the compounds were tested was 300 µg/mL. A dilution series of 1:3 fold steps in DMEM (GIBCOPInvitrogen, cat. no. 11995P073) + 10 % FBS was created (concentration range of 600 µg/mL – 0.28 µg/mL), and 20 µL of these 2x concentrated compound dilutions were added in duplicates to wells of a black wall, clear bottom 384Pwells cell culture plate. […]
After the incubation, 5 µL of 100 µM (25 µg/mL) resazurin dissolved in PBS (final concentration was approximately 11 µM) was added to each well. […] The fluorescence intensity was read using the TECAN Infinite M1000 PRO with excitation/emission 560/590. The data was analysed by Graph Pad Prism software. […]

K. pneumoniae ATCC 13883 = format: cell-based, Klebsiella pneumoniae; conditions: n = 4
Experimental: (§3) Both antibacterial and antifungal MIC assays were performed by a broth microdilution plate based method as per CLSI guidelines for antimicrobial susceptibility testing.[53],[54] […] Full assay details are included in the Supporting Information with a full list of strains tested in Table S1.
(§4) Antibacterial assay (Minimum Inhibitory Concentration [MIC]).
(§5) MIC assay was performed by a broth microdilution plate based method as per CLSI guidelines for antimicrobial susceptibility testing of aerobic bacteria.1 Compounds were prepared at 1.28 mg/mL solution in water. The tested strains, Table S1, were cultured in Luria broth (LB) (In Vitro Technologies, USB75852), at 37 °C overnight. A sample of culture was then diluted 40Pfold in fresh Muller Hinton broth (MHB) (Bacto laboratories, 211443) and incubated at 37 °C for 1.5P2 h. The compounds were serially diluted twoPfold across the wells, with compound concentrations ranging from 0.015 µg/mL to 512 µg/mL, plated in duplicate. The resultant midPlog phase cultures were diluted to the final concentration of 1×10^6 CFU/mL, then 50 µL was added to each well of the compoundP containing 96Pwell plates (Corning 3641, NonPbinding Surface [NBS]), giving a final compound concentration range of 0.008 µg/mL to 256 µg/mL and 5x10^5 CFU/mL. All the plates were covered and incubated at 37 °C for 18 h. MICs were determined visually, being defined as the lowest concentration showing no visible growth. Resazurin was added at 0.001% final concentration to each well and incubated for 2 h before MICs were rePread for confirmation using the colour change from blue to pink to indicate wells containing viable cells. The resazurin assay was added in some wells where some form of precipitate was present in otherwise clear wells, making it difficult to ascertain which wells had visible […]
(§6) Antifungal assay (Minimum Inhibitory Concentration [MIC]). MIC assay was performed by a broth microdilution plate based method as per CLSI guidelines for antimicrobial susceptibility testing.2 Fungi strains, Table S1, were cultured for 3 days on Yeast ExtractPPeptone Dextrose (YPD) (SigmaPAldrich, Y1500) agar at 30 °C. A yeast suspension of 1x10^6 to 5x10^6 CFU/mL was prepared from five colonies. These stock suspensions were diluted with Yeast Nitrogen Base (YNB) (Becton Dickinson, 233520) broth to a final concentration of 2.5 ×10^3 CFU/mL. All samples, compounds and standards were plated in 96Pwell plates (Corning 3641, NonPbinding Surface [NBS]), by adding 10 µL of 1.28 mg/mL stock solution to each well and 90 µL of media. Then, the samples were serial diluted (1:2) in 12 concentrations across the plate. The standard antifungal ranged from 256

[2] = system: K. pneumoniae ATCC 700603 (MDR); format: cell-based, Klebsiella pneumoniae
Experimental: as §3, §4, §5, §6

[3] = system: K. pneumoniae BAA 2146 (NDM-1 pos); format: cell-based, Klebsiella pneumoniae; conditions: n = 4
Experimental: as §3, §4, §5, §6

human erythrocytes = test: Hemolysis assay; conditions: 3 h, relative to 100% hemolysis by 1% Triton X-100
Hemolysis assay = conditions: hemolysis (%) at 300 μg/mL, human erythrocytes, 3 h, relative to 100% hemolysis by 1% Triton X-100
[4] = Plasma protein binding, ultrafiltration; format: in vitro ADME; conditions: 100% human plasma, read-out: PPB (%) (converted)
Experimental: Plasma protein binding was performed using an ultrafiltration method.[58]
Plasma protein binding assay
Plasma protein binding was performed using an Ultrafiltration method.13 Fresh frozen human plasma was pooled from O Negative (Product number 1274512) blood from the R & D division of the Australian Red Cross Blood Services (Brisbane). Stock solutions (20 mg/mL) of the test compounds were prepared in H2O. Test compounds (40 µg/mL) were incubated in 100 % human plasma at 37 °C for 30 min (1 mL volume). For unfiltered samples, an aliquot (50 µL) was removed, diluted with PBS (50 µL) and quenched with icePcold precipitating solution comprising 0.5 µM carbutamide MS internal standard in acetonitrile : methanol : formic acid (1: 1 : 0.001). Samples were incubated at 4 °C for 30 min then centrifuged at 14000 × g for 8 min, with the clear supernatant transferred to a vial for LC/MS/MS analysis.
For filtered samples, the plasma sample (250 µL) was filtered using Amicon UltraP0.5 Centrifugal Filter Devices 30K NMWL at 14000 × g for 7 min and then an aliquot (50 µL) was processed as described for unfiltered samples. The fraction of unbound compound was calculated by determining the concentration of the filtered sample and the concentration of unfiltered sample. All samples were performed in triplicate with sulfamethoxazole as a […]

[5] = system: S. aureus ATCC 43300 (MRSA); format: cell-based, Staphylococcus aureus; conditions: n = 4
Experimental: as §3, §4
as §5, with “h.” for “h. MICs were determined visually, being defined as the lowest concentration showing no visible growth. Resazurin was added at 0.001% final concentration to each well and incubated for 2 h before MICs were rePread for confirmation using the colour change from blue to pink to indicate wells containing viable cells. The resazurin assay was added in some wells where some form of precipitate was present in otherwise clear wells, making it difficult to ascertain which wells had visible”

[6] = system: E. coli ATCC 25922 (control strain); format: cell-based, Escherichia coli; conditions: n = 4
Experimental: as §3, §4, §5
(§7) Antifungal assay (Minimum Inhibitory Concentration [MIC]). […]

E. coli MB 4902 (ΔlpxC) = format: cell-based, Escherichia coli; conditions: n = 4
Experimental: as §3, §4, §5, §7

[7] = system: E. coli ATCC 700926 (K12); format: cell-based, Escherichia coli; conditions: n = 4
Experimental: as §3, §4, §5, §7

C. albicans ATCC 90028 = format: cell-based, Candida albicans; conditions: n = 4
Experimental: as §3, §4
(§8) MIC assay was performed by a broth microdilution plate based method as per CLSI guidelines for antimicrobial susceptibility testing of aerobic bacteria.1 Compounds were prepared at 1.28 mg/mL solution in water. The tested strains, Table S1, were cultured in Luria broth (LB) (In Vitro Technologies, USB75852), at 37 °C overnight. A sample of culture was then diluted 40Pfold in fresh Muller Hinton broth (MHB) (Bacto laboratories, 211443) and incubated at 37 °C for 1.5P2 h. The compounds were serially diluted twoPfold across the wells, with compound concentrations ranging from 0.015 µg/mL to 512 µg/mL, plated in duplicate. […]
(§9) µg/mL to 0.12 µg/mL and compounds from 128 µg/mL to 0.06 µg/mL with final volumes of 50 µL per well, plated in duplicate. […] Candida albicans MICs were determined by measuring the absorbance at OD530. […]
(§10) Cryptococcus neoformans MICs were determined by measuring the absorbance at OD570P600. […]

A. baumannii ATCC 19606 = format: cell-based, Acinetobacter baumannii; conditions: n = 4
Experimental: as §3, §4
as §5, with “h.” for “h. MICs were determined visually, being defined as the lowest concentration showing no visible growth. Resazurin was added at 0.001% final concentration to each well and incubated for 2 h before MICs were rePread for confirmation using the colour change from blue to pink to indicate wells containing viable cells. The resazurin assay was added in some wells where some form of precipitate was present in otherwise clear wells, making it difficult to ascertain which wells had visible”

[8] = system: C. neoformans ATCC 208821; format: cell-based, Cryptococcus neoformans; conditions: n = 4
Experimental: as §3, §4, §8, §9, §10

HEK293 cells = test: Cytotoxicity, Alamar Blue (resazurin) assay; format: cell-based, human; conditions: kidney cells (HEK293) vs liver cells (HepG2)
Experimental: as §1, §2
(§11) The highest concentration the compounds were tested was 300 µg/mL. A dilution series of 1:3 fold steps in DMEM (GIBCOPInvitrogen, cat. no. 11995P073) + 10 % FBS was created (concentration range of 600 µg/mL – 0.28 µg/mL), and 20 µL of these 2x concentrated compound dilutions were added in duplicates to wells of a black wall, clear bottom 384Pwells cell culture plate. For the assays with 1 % FBS the compounds in 0 % FBS were added to the existing cell plates in 2 % FBS. 200 µM Tamoxifen (Sigma T5648) served as negative control and in addition a serial dilution of tamoxifen, starting at 200 µM (74 µg/mL), was included as a dose response control (1 in 2 dilution series for tamoxifen). For the assay with 10 % FBS, HepG2 cells were seeded at 5000 cells per well, in a volume of 20 µL in DMEM medium + 10 % of FBS and added to the 20 µL of compound solution (total volume of 40 µL), resulting in a final compound concentration range of 300 µg/mL to 0.14 µg/mL.
(§12) Cells were incubated together with the compounds for 20 h at 37 °C, 5 % CO2.
(§13) After the incubation, 5 µL of 100 µM (25 µg/mL) resazurin dissolved in PBS (final concentration was approximately 11 µM) was added to each well. The plates were then incubated for 3 h at 37 °C, 5 % CO2. The fluorescence intensity was read using the TECAN Infinite M1000 PRO with excitation/emission 560/590. The data was analysed by Graph Pad Prism software. […]

[9] = Cytotoxicity, Alamar Blue (resazurin) assay; format: cell-based, human; conditions: human, HEK293 cells
Experimental: as §1, §2, §11, §12, §13

P. aeruginosa ATCC 27853 = format: cell-based, Pseudomonas aeruginosa; conditions: n = 4
Experimental: as §3, §4
as §5, with “h.” for “h. MICs were determined visually, being defined as the lowest concentration showing no visible growth. Resazurin was added at 0.001% final concentration to each well and incubated for 2 h before MICs were rePread for confirmation using the colour change from blue to pink to indicate wells containing viable cells. The resazurin assay was added in some wells where some form of precipitate was present in otherwise clear wells, making it difficult to ascertain which wells had visible”

[10] = system: E. coli ATCC 25922 cytoplasmic membrane; test: Inner membrane permeability measured by SYTOX green fluorescence emission; conditions: same E. coli ATCC 25922 strain
B. subtilis ATCC 6051 = format: cell-based, Bacillus subtilis
Experimental: as §3, §4
as §5, with “h.” for “h. MICs were determined visually, being defined as the lowest concentration showing no visible growth. Resazurin was added at 0.001% final concentration to each well and incubated for 2 h before MICs were rePread for confirmation using the colour change from blue to pink to indicate wells containing viable cells. The resazurin assay was added in some wells where some form of precipitate was present in otherwise clear wells, making it difficult to ascertain which wells had visible”

CC(C)C[C@@H]1NC(=O)[C@H](CCCNC(=N)N)NC(=O)[C@H](CCCNC(=N)N)NC(=O)[C@@H](NC(=O)[C@@H]2CCC(=O)N2)CSSC[C@@H](C(=O)N[C@@H](CCCNC(=N)N)C(=O)NCC(=O)N[C@@H](CCCNC(=N)N)C(N)=O)NC(=O)[C@H](Cc2ccc(O)cc2)NC(=O)[C@H]([C@@H](C)O)NC(=O)[C@H](C(C)C)NC(=O)[C@@H]2CSSC[C@H](NC1=O)C(=O)N[C@@H](Cc1ccc(O)cc1)C(=O)N[C@@H](CCCCN)C(=O)N[C@@H](CCC(N)=O)C(=O)N[C@@H](CCCNC(=N)N)C(=O)N2 [gomesin]
CC50 at 24 h ([1]; HepG2, 1% FBS, read-out: cytotoxicity HepG2 1% FBS): 162.4 ± 1.1 µg/mL (≈ 71.5 µM)
CC50 at 24 h ([1]; HepG2, 10% FBS, read-out: cytotoxicity HepG2 10% FBS): 220 ± 73.3 µg/mL (≈ 96.8 µM)
MIC (K. pneumoniae ATCC 13883): 16 µg/mL (≈ 7.05 µM)
fold reduction of activity ([2]; K. pneumoniae (ATCC 700603, MDR) and S. aureus (ATCC 43300, MRSA) vs other strains): 4–8 fold
MIC ([2]; K. pneumoniae ATCC 700603 (MDR), n = 4): 64 µg/mL (≈ 28.2 µM)
MIC [3]: 32 µg/mL (≈ 14.1 µM)
hemolysis (%) at 300 μg/mL (human erythrocytes): 4.4 ± 0.1%
hemolysis (Hemolysis assay): 4%
fraction unbound [4]: 0.13
MIC [5]: 128 µg/mL (≈ 56.4 µM)
MIC [6]: 16 µg/mL (≈ 7.05 µM)
MIC (E. coli MB 4902 (ΔlpxC)): 4 µg/mL (≈ 1.76 µM)
MIC [7]: 8 µg/mL (≈ 3.52 µM)
MIC (C. albicans ATCC 90028): 16 µg/mL (≈ 7.05 µM)
MIC (A. baumannii ATCC 19606): 16 µg/mL (≈ 7.05 µM)
MIC [8]: 2 µg/mL (≈ 0.881 µM)
fold more toxicity toward HEK293 than HepG2 (HEK293 cells): approximately 2 fold
CC50 at 24 h ([9]; HEK293, 1% FBS, read-out: cytotoxicity HEK293 1% FBS): 102 ± 1.1 µg/mL (≈ 45.1 µM)
CC50 at 24 h ([9]; HEK293, 10% FBS, read-out: cytotoxicity HEK293 10% FBS): 116 ± 25.1 µg/mL (≈ 51.1 µM)
MIC (P. aeruginosa ATCC 27853): 16 µg/mL (≈ 7.05 µM)
permeabilization concentration relative to MIC [10]: lower concentration than their MIC
MIC (B. subtilis ATCC 6051; B. subtilis ATCC 6051, n = 4): 2 µg/mL (≈ 0.881 µM)
fold more potent (B. subtilis ATCC 6051; B. subtilis and C. neoformans vs any other strains of bacteria and fungi): 2–10 fold

≈ marks a conversion by molar mass, not a printed value. Where two headings read alike, the source gives them in different places.
